Patent publication US7052850B2, “Isolated human EDG-4 receptor” (priority 1997, dated 2006)

Test system: human EDG-3
Assay: NF-κB luciferase reporter in 293-EBNA cells, human EDG-3
Assay type: cell-based
Conditions: Assay 3; pancreas EDG-3 clone; 3 μM

For `CCCCCCCCCCCCC/C=C/[C@@H](O)[C@@H](N)COP(=O)(O)O` [S1P, sphingosine 1-phosphate], the “induction of the NF-κB reporter gene compared to untreated controls” value was “about 8 fold”.
